Compounds with a hit are over-represented: about 13% of the library has one in this group of screens.
Lamin A splicing: changes lamin A minigene splicing in HeLa cells; HeLa LMNA splicing GFP/RFP minigene ratio, 48 h; Potency, µM (top dose mostly 46.1 µM), inactives show top-dose ratio change, negative = inhibition, actives largely listed as inhibitors; 0.01% of 200,000 active; active = well fitted inhibition curve with a large enough effect in the signal ratio, with a control signal flat, not every such curve was filed as active; inconclusive = small, poorly fitted or top-dose-only effect, or effect the other way, or a change in a side signal; the % refers to the signal ratio; also: potency is read from the fitted curve at half-maximal effect; % is scaled to controls: 0 for no effect and ±100 for the full control effect
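Read-out is the ratio of GFP to DsRed2 object intensity, acquired by 488 nm laser-scanning cytometry on HeLa lamin A-EGFP minigene reporter cells. Compound incubation 48 hrs at 37 °C in Opti-MEM with 2% FBS; DMSO 0.5% final.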
miR-21 reporter: miR-21 reporter, rising signal; Potency, µM (doses to about 38.3 µM), without a hit: at the top dose reporter change, positive = more light; HeLa miR-21 FLuc reporter, luciferase, 48 h; 340,000 tested, under 10 active; active = well fitted rising curve with a large enough effect; inconclusive = small, poorly fitted or top-dose-only effect; inactive = no such curve, though single readings can be large or run the other way;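 further: % of control where 0% means no effect; miR-21 action dims this reporter so a rising signal means less miR-21 action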
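Luminescence from a firefly luciferase reporter carrying a miR-21 binding site downstream, stably expressed under a CMV promoter in HeLa cells that make miR-21 endogenously, reports miRNA modulation after 48 h compound exposure up to approximately 40uM final.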
KDM4E inh: blocks human JMJD2E demethylase activity. JMJD2E catalytic domain, FDH-coupled NADH fluorescence (FDH is formaldehyde dehydrogenase). Potency, µM (highest dose often 57.1 µM), for inactives: at the highest dose activity change, negative = inhibition, actives largely listed as inhibitors. 1.6% of 230,000 active. AID 2147; active = well fitted inhibition curve with a large enough effect, not every such curve was filed as active; inconclusive = small, poorly fitted or top-dose-only effect, or another doubt; inactive = no such curve, though single readings can be large or run the other way;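 also: potency is read from the fitted curve at half-maximal effect; 0% = wells with enzyme and -100% = buffer wells without enzyme; nearly all actives have a fitted effect of over 50% in size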
ALDH1A1 inh: ALDH1A1 (human) enzyme inhibition. Potency, µM (highest dose often 75.3 µM), for the others: at the highest dose activity, negative = inhibition, actives largely listed as inhibitors. AID 1030. 7.3% of 220,000 active. Purified ALDH1A1, NADH fluorescence, propionaldehyde substrate; active = well fitted inhibition curve with a large enough effect, not every such curve was filed as active; inconclusive = small, poorly fitted or top-dose-only effect, or another doubt; inactive = no such curve, though single readings can be large or run the other way;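 also: potency is read from the fitted curve at half-maximal effect; plate controls were no enzyme wells and a reference inhibitor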
G9a inh: G9a (human) methyltransferase inhibition. Q96KQ7. G9a H3K9 monomethylation, AlphaScreen, 2 h. Potency, µM (titrated, usually from 102 µM), without a hit: top-dose activity, negative = inhibition, most hits filed as inhibitors. 8.8% of 350,000 active. AID 504332; also: potency is read from the fitted curve at half-maximal effect; % is scaled to controls: 0 for no effect and ±100 for the full control effect; nearly all actives have a fitted effect of over 75% in size
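Quantitative HTS format: methyltransferase activity on a biotin-tagged H3K9 peptide is measured by AlphaScreen, using a rabbit anti-monomethyl-H3K9 antibody with streptavidin donor and anti-IgG acceptor beads. Final levels are 20 nM enzyme, 500 nM peptide, 20 uM SAM; 2 h RT.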
Sfp PPTase inh: qHTS Assay for Inhibitors of Bacillus subtilis Sfp phosphopantetheinyl transferase (PPTase); Biochemical Sfp PPTase activity, qHTS; Potency, µM, for inactives: max response, negative = inhibition, actives largely listed as inhibitors; actives 3.5% (n = 310,000); AID 1490, 2009; active = well fitted inhibition curve with a large enough effect; inconclusive = small, poorly fitted or top-dose-only effect, or another doubt; inactive = no such curve, though single readings can be large or run the other way;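 note: the enzyme is Sfp with the accession as filed and its product quenches rhodamine fluorescence; potency is the fitted concentration of half-maximal effect; 0% = enzyme reaction without inhibitor and -100% = no enzyme wells; top concentration of the series not given in the record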
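Compounds were incubated with enzyme (final 15 nM) for 15 min at room temperature before substrate addition started the reaction. Fluorescence at 525 nm excitation, 598 nm emission was recorded immediately and after 30 minutes.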
* = called active by the depositor; u = inconclusive; x = no result; [ ] = another dose, or the depositor's remark. Unless noted, calls follow the shape of the dose curve; as a rule, active = well fitted curve in the direction sought with a large enough effect; inconclusive = small, poorly fitted or top-dose-only effect, or another doubt; inactive = no such curve, though single readings can be large; an effect the other way counts as inactive or inconclusive.

1	CCOc1ccccc1C(=O)N(Cc1ccco1)C1CCS(=O)(=O)C1 (stereo not drawn)
2	CCCCOc1ccccc1C(=O)N(Cc1ccco1)C1CCS(=O)(=O)C1 (stereo not drawn)
3	CN(C)c1ccc(CN(C(=O)C2COc3ccccc3O2)C2CCS(=O)(=O)C2)cc1 (stereo not drawn)
4	CC(C)c1ccc(CN(C(=O)C2COc3ccccc3O2)C2CCS(=O)(=O)C2)cc1 (stereo not drawn)
5	CC(C)Oc1ccc(C(=O)N(Cc2ccc(N(C)C)cc2)C2CCS(=O)(=O)C2)cc1 (stereo not drawn)
6	C=CCOc1ccc(C(=O)N(Cc2ccc(N(C)C)cc2)C2CCS(=O)(=O)C2)cc1 (stereo not drawn)
7	CCOC(=O)c1cccc(NC(=O)C2COc3ccc(OC)cc3C2)c1 (stereo not drawn)
8	CCOc1ccc(N(CC)C(=O)c2cc3c(s2)-c2ccccc2OC3)cc1
9	CN(C)c1ccc(CN(C(=O)COc2ccccc2)C2CCS(=O)(=O)C2)cc1 (stereo not drawn)
10	Cc1c(C(=O)N(Cc2ccc(N(C)C)cc2)C2CCS(=O)(=O)C2)oc2ccccc12 (stereo not drawn)
compound no.,1,2,3,4,5,6,7,8,9,10
Lamin A splicing,3%,x,-4%,u,x,0%,u,x,5%,x
miR-21 reporter,-11%,0%,2%,4%,-11%,-6%,-2%,13%,-7%,2%
KDM4E inh,6%,x,-5%,-1%,x,-14%,x,x,-5%,-11%
ALDH1A1 inh,19%,x,4.5µM*,u,x,10µM*,x,x,4µM*,x
G9a inh,u,-4%[59 µM],45µM*,x,u,50µM*,-6%[59 µM],-14%[59 µM],u,13µM*
Sfp PPTase inh,50µM*,15%,u,-9%,x,-7%,x,x,12%,-10%

11	Cc1ccccc1OCC(=O)N(Cc1ccc(N(C)C)cc1)C1CCS(=O)(=O)C1 (stereo not drawn)
12	O=C(Cn1cnc2ccccc2c1=O)Nc1ccc(N2CCOCC2)cc1
13	O=C(CCn1ccc2ccccc21)Nc1ccc(N2CCOCC2)cc1
14	CN(C)c1nc(SCC(=O)Nc2ccccc2)nc(N2CCOCC2)n1
15	O=C(CSc1cccc[n+]1[O-])Nc1ccc([N+](=O)[O-])cc1Cl
16	Cn1c(=O)c2ncn(CC(=O)Nc3ccc(N4CCOCC4)cc3)c2n(C)c1=O
17	O=C(Cn1cc2c(n1)CCCCC2)Nc1ccccc1Br
18	COc1cc(OC)cc(C(=O)Nc2ccc3c(c2)N(C2CCCC2)C(=O)c2ccccc2S3)c1
19	Nc1ccccc1SCC(=O)Nc1ccc(N2CCOCC2)cc1
20	O=C(CSc1cccc[n+]1[O-])Nc1ccc2c(c1)OCCO2
compound no.,11,12,13,14,15,16,17,18,19,20
Lamin A splicing,8%,u,u,-18%[9.22 µM],x,4%,x,u,19%,1%[46 µM]
miR-21 reporter,-13%,4%,-7%,-18%,-2%,1%,-36%,u,-5%,-13%
KDM4E inh,-1%,12%,-20%,-8%,17%,2%,-1%,x,-3%,-2%
ALDH1A1 inh,11µM*,-2%,u,25µM*,8%,9%,x,x,-10%,-8%
G9a inh,32µM*,-28%,50µM*,4%,56µM*,14µM*,35%,0%[59 µM],45µM*,25%[0.0925 µM]
Sfp PPTase inh,6%,-7%,7%,-8%,14%,-12%,4%,x,6%,19%

21	CCN(CC)S(=O)(=O)c1ccc(NC(=O)CSc2cccc[n+]2[O-])cc1
22	Cc1ccccc1SCC(=O)Nc1ccc(N2CCOCC2)cc1
23	CCN(CC)S(=O)(=O)c1ccc(Cl)c(NC(=O)CSc2cccc[n+]2[O-])c1
24	O=C(CSc1cccc[n+]1[O-])Nc1ccc(N2CCOCC2)cc1
25	COc1ccc(N(CN2C(=O)c3ccccc3C2=O)C(=O)C(C)C)cc1
26	COc1ccc(Br)c2oc(S)cc(=O)c12
27	NC(=S)NNc1cccc2cccnc12
28	c1ccc(-c2nc(N3CCOCC3)sc2-c2ccccc2)cc1
29	O=Cc1sc(N2CCOCC2)nc1-c1ccccc1
30	Cc1ccc2oc(-c3ccc(C)c(NC(=O)c4ccc(-c5ccccc5[N+](=O)[O-])o4)c3)nc2c1
compound no.,21,22,23,24,25,26,27,28,29,30
Lamin A splicing,-8%,x,x,-16%[9.22 µM],-1%,-3%,x,x,x,x
miR-21 reporter,5%,-16%,-2%,4%,-1%,0%,-22%,-10%,-1%,-65%
KDM4E inh,u,-8%,0%,1%,7%,-2%,-8%,x,-5%,x
ALDH1A1 inh,22µM*,-5%,x,u,11µM*,u,3.5µM*,x,8.9µM*,x
G9a inh,u,-6%[59 µM],7%,56µM*,-6%[59 µM],7.1µM*,18µM*,-5%,-13%,7%[59 µM]
Sfp PPTase inh,-8%,17%,-5%,11%,9%,u,3.2µM*,-26%,u,x

31	Cc1c(-c2ccn[nH]2)cc(NC(=O)c2ccc(Cl)cc2)c(=O)n1N
32	COc1ccc(C(=O)n2nc(-c3ccco3)nc2N)cc1OC
33	COc1ccc(C(=O)n2nc(-c3ccccc3)nc2N)cc1OC
34	CCOc1ccc(NC(=O)c2cc3cc(C)ccc3n2C)cc1
35	Cc1ccc(C(=O)N2CCN(C3c4cccc5cccc(c45)C3NS(=O)(=O)c3ccccc3)CC2)cc1 (stereo not drawn)
36	CC1C(=O)OC2C1CCC1(C)CCC(=O)C(C)C21 (stereo not drawn)
37	O=[N+]([O-])c1cccc(/C=N/NC2CCS(=O)(=O)C2)c1 (stereo not drawn)
38	CCN(CC)c1ccc(-c2nc3cnccn3c2NC2CCCC2)cc1
39	COc1ccc(/C=C2\CCc3ccccc3C2=O)cc1Cn1nc(C)cc1C
40	COc1ccc(/C=C2/CCc3ccccc3C2=O)cc1CN1CCOCC1
compound no.,31,32,33,34,35,36,37,38,39,40
Lamin A splicing,u,x,2%,u,-6%,x,x,u,-18%,u
miR-21 reporter,4%,-5%,-6%,-12%,18%,1%,-20%,-11%,12%,-57%
KDM4E inh,-4%,-4%,u,x,0%,x,-8%,204%,-6%,-16%
ALDH1A1 inh,7%,-3%,-7%,x,22µM*,x,x,u,u,0%
G9a inh,17%,u,-50%[59 µM],6%[59 µM],u,22µM*,u,50µM*,0%[12.7 µM],u
Sfp PPTase inh,2%,-2%,79µM*,x,3%,-30%,3%,-24%,20µM*,1%

41	COc1cc([N+](=O)[O-])cc(/C=N/NC(=O)Cn2cncn2)c1O
42	COc1cc([N+](=O)[O-])cc(/C=N/NC(=O)CSc2ccccn2)c1O
43	COc1cc([N+](=O)[O-])cc(/C=N/NC(=O)c2ccc(C)nc2)c1O
44	O=C(Cn1cncn1)N/N=C/c1ccccc1Cl
45	COc1cc([N+](=O)[O-])cc(/C=N/NC(=O)CC#N)c1O
46	COc1cc(/C=N/NC(=O)CSc2ccccn2)ccc1O
compound no.,41,42,43,44,45,46
Lamin A splicing,x,x,-18%,x,3%[46 µM],x
miR-21 reporter,-8%,2%,-7%,2%,1%,-5%
KDM4E inh,14µM*,20µM*,14µM*,-2%,u,0%
ALDH1A1 inh,x,x,-8%,x,14µM*,x
G9a inh,u,x,21%[59 µM],16%[12.7 µM],50µM*,7%
Sfp PPTase inh,16%,14%,5%,1%,8%,6%

Only KDM4E inh, for some of the entries so far:
no.	SMILES	KDM4E inh
45	COc1cc([N+](=O)[O-])cc(/C=N/NC(=O)CC#N)c1O	u
46	COc1cc(/C=N/NC(=O)CSc2ccccn2)ccc1O	0%
43	COc1cc([N+](=O)[O-])cc(/C=N/NC(=O)c2ccc(C)nc2)c1O	14µM*
41	COc1cc([N+](=O)[O-])cc(/C=N/NC(=O)Cn2cncn2)c1O	14µM*

Compound activity (PubChem BioAssay)
